Laboratory results taken from patent US11046699B2, “Pyrazolo-pyrimidin-amino-cycloalkyl compounds and their therapeutic uses” (RAPT THERAPEUTICS, INC., priority 2018, dated 2021).
Like-named read-outs stand apart in the source and are kept apart here.

Protein sequences, listed by entry. Tags and fused reporters are not part of them.
UniProt Q9P2K8, whole entry: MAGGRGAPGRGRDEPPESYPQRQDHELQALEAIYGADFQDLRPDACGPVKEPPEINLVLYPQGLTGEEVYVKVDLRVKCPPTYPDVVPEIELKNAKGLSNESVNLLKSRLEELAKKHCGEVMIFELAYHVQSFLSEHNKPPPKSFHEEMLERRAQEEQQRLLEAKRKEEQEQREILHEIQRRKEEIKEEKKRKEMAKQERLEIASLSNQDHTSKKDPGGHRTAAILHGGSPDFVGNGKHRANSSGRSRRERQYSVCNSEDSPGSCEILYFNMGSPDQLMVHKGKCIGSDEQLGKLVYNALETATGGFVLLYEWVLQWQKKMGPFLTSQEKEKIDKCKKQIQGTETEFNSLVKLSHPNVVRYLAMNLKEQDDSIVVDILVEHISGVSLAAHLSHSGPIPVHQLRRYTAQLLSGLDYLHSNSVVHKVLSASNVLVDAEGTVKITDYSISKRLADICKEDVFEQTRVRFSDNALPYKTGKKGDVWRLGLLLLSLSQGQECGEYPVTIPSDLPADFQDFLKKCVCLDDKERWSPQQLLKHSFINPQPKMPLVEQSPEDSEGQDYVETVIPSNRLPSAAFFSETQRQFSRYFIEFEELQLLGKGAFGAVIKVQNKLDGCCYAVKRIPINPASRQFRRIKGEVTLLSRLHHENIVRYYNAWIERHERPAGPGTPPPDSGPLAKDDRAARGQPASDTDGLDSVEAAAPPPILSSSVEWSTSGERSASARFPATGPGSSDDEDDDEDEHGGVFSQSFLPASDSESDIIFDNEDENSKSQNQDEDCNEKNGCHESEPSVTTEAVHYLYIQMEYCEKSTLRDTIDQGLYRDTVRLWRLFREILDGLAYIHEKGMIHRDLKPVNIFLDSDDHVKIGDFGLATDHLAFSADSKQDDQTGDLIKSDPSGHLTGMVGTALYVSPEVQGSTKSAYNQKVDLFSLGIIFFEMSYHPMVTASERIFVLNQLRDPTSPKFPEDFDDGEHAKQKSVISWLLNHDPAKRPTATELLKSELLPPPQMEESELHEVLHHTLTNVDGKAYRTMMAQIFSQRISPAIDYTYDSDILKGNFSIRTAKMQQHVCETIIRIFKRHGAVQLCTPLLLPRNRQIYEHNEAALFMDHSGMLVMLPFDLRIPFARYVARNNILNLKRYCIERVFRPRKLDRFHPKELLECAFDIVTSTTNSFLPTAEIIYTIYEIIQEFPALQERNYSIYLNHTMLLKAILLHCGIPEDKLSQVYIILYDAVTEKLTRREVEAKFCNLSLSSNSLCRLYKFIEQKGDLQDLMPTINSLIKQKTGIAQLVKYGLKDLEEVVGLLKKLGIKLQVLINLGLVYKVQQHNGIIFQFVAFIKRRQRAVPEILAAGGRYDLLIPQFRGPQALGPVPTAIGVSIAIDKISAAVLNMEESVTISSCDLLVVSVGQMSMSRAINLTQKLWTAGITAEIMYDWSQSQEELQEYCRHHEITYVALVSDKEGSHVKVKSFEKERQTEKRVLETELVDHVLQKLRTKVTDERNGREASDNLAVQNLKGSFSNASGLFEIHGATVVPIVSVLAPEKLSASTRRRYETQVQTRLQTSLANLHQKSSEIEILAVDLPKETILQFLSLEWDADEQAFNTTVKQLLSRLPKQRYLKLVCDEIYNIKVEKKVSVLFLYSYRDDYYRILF

Target: GCN2 (Homo sapiens, UniProt Q9P2K8)
Assay: GCN2 enzymatic endpoint assay: phosphorylation of GFP-eIF2α measured by TR-FRET (Lanthascreen)
Conditions: read-out: GCN2 activity, GCN2 biochemical IC50, 4 nM GCN2, 2 μM ATP, 80 nM GFP-eIF2α, 90 min RT
Experimental: The Enzymatic assay was run as an endpoint assay to quantify the activity of the serine/threonine GCN2 kinase by way of measuring phosphorylation of its natural substrate, eiF2α.
The enzymatic reaction was initiated by incubating with 2 μM ATP and 80 nM of GFP labeled eiF2a substrate at room temperature and then stopped after 90 minutes with EDTA. The amount of phosphorylated eIF2α is determined by TR-FRET (Lanthascreen). A terbium labeled antibody associates with the phosphorylated substrate resulting in an increased TR-FRET value. Activity was calculated as the ratio of the acceptor (fluorescein) signal at 520 nm wavelength to the donor (terbium) signal 495 nm. The amount of antibody that is bound to the tracer is directly proportional to the amount of phosphorylated substrate present, and in this manner, kinase activity can be detected and measured by an increase in the TR-FRET value.
Compound addition by D300
5 μL enzyme solution in assay buffer
5 μL substrate/ATP mixture in assay buffer
5 μL stop/detection mix in antibody dilution buffer

SMILES | IC50 (tested form: TFA) [nM] | IC50 [nM]
CNC(=O)[C@]1(C)CC[C@@H](Nc2ncc3c(Br)nn(-c4ccc5c(c4)CCC(=O)N5C)c3n2)C1 | 25 to 200 | 
CNC(=O)[C@]1(C)CC[C@@H](Nc2ncc3c(Br)nn(-c4ccc5c(c4)OCC(=O)N5C)c3n2)C1 |  | 25 to 200
